From US11116760B2 (Gilead Sciences, Inc., priority 2018, dated 2021) come the findings set out here.

Chains of the proteins cited; added tags and fusions are not shown. Residues count along the entry.
UniProt P13612, 34-1032 limits assumed: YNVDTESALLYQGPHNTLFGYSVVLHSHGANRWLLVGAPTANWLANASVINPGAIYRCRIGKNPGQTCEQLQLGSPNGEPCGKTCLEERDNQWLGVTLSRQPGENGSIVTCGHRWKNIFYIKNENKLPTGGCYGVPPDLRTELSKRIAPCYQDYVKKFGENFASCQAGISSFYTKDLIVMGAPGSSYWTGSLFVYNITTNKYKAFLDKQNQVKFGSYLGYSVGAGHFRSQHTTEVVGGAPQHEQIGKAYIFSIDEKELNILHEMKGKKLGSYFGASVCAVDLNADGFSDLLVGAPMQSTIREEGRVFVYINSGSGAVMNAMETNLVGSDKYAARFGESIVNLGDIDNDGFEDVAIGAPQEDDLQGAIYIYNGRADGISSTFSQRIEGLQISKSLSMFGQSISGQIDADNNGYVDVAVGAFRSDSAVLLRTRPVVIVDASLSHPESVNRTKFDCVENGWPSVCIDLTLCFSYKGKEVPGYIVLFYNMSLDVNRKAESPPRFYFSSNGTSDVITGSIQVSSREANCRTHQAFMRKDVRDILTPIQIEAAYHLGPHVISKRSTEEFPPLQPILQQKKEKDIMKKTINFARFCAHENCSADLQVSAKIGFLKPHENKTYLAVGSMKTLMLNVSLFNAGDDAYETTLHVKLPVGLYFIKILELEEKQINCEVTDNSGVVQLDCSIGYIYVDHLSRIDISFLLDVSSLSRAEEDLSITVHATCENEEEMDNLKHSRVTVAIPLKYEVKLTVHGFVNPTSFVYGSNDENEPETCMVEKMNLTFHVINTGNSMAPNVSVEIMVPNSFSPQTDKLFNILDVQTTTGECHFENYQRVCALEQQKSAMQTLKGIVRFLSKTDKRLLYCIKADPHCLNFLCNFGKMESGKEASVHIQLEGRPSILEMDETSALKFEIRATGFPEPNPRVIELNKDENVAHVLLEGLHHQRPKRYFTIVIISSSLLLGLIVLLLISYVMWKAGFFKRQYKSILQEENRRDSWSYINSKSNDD
UniProt P26010, 20-798 limits assumed: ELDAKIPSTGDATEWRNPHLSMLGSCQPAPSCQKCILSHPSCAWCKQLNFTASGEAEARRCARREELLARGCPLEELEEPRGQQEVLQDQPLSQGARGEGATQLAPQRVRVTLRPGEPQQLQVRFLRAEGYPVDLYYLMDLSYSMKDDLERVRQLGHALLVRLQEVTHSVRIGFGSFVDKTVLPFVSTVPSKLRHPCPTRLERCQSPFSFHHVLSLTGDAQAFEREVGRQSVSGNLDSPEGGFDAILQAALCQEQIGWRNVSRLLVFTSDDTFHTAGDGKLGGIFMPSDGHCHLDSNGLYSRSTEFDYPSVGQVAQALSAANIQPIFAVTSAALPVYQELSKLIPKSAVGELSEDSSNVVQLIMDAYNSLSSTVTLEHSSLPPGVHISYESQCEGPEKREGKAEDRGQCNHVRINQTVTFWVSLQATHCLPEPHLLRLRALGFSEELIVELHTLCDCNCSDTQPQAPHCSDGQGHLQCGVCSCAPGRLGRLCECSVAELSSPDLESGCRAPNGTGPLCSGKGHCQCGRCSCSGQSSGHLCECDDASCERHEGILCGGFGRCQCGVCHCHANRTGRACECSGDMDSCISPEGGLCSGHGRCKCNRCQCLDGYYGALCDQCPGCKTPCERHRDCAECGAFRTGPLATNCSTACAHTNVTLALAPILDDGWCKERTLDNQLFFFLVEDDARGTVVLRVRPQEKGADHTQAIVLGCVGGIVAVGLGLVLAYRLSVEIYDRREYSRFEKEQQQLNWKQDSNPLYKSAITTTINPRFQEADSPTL

The experiment addresses α4β7 integrin (Homo sapiens (Human), UniProt P13612+P26010). As to the kind of experiment: α4β7 Integrin Cell Capture Assay. The settings on record: read-out: α4β7 EC50; RPMI8866 cells captured on MadCAM-1 extracellular domain-coated plate.

On to `CC[C@@H](Nc1cc(C)c(C(=O)N[C@@H](Cc2ccc(-n3c(=O)c4ccncc4n(C)c3=O)c3ncccc23)C(=O)O)c(F)c1)C(F)(F)F` [Example 439], for which the half-maximal effective concentration (EC50) worked out at 0.076 nM.

Broadly, the EC50 is the midpoint of the concentration-response curve.
